Like-named read-outs stand apart in the source and are kept apart here.
Tests used:
human P2X2/3 receptor = human P2X2/3 receptor (Homo sapiens (Human), UniProt P56373+Q9UBL9); assay: Intracellular calcium measurement (FLIPR, Fluo-4) of antagonist activity at human P2X2/3 receptors; format: cell-based; conditions: human P2X2/3, FLIPR calcium assay, agonist α,β-Me-ATP; read-out: hP2X2/3 IC50
human P2X3 receptor = human P2X3 receptor (Homo sapiens (Human), UniProt P56373)
[1] = hP2X3 IC50 (nM), human P2X3, FLIPR calcium assay, agonist α,β-Me-ATP
[2] = read-out: hP2X3 IC50, human P2X3, FLIPR calcium assay, agonist α,β-Me-ATP

By UniProt entry, the sequences of proteins in these tests, tags left out. Where a name states a change or a piece, a line headed by the entry shows the natural chain unless it says otherwise.
UniProt P56373: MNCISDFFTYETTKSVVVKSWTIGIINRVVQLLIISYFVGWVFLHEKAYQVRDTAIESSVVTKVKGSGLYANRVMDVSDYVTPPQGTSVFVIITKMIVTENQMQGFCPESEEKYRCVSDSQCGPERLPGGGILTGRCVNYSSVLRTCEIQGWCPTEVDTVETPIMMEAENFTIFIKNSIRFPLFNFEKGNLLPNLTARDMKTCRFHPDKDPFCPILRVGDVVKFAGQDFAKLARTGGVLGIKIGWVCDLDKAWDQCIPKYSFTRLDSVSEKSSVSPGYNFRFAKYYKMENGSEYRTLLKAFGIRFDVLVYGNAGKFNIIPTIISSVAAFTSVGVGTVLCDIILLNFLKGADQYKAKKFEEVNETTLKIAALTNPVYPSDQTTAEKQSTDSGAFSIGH
UniProt Q9UBL9: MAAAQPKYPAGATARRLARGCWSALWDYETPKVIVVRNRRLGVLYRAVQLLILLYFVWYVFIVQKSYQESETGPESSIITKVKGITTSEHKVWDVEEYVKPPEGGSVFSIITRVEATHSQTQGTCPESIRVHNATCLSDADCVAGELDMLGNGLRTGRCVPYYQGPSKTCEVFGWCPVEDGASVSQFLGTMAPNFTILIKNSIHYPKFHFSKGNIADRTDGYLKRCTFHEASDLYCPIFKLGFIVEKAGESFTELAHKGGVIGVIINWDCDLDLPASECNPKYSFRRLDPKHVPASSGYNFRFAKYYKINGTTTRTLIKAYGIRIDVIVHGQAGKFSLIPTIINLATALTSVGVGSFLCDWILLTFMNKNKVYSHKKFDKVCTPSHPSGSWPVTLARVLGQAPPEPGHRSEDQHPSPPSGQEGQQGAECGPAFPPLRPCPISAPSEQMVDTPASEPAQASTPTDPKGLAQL

SMILES	IC50 (human P2X2/3 receptor) [nM]	IC50 (human P2X3 receptor; [1]) [nM]	IC50 (human P2X3 receptor; [2]) [nM]	IC50 (human P2X3 receptor; read-out: hP2X3 IC50) [nM]	IC50 (human P2X3 receptor; hP2X3 IC50 (nM)) [nM]
Cc1cnc(-c2cc(OC(C)C(C)O)cc(C(=O)N[C@H](C)c3cnc(C(F)(F)F)nc3)c2)s1 (single isomer, unassigned) [Example 163]	83			5	
Cc1cnc([C@@H](C)NC(=O)c2cc(OC[C@@H]3CCOC3)cc(-c3ncc(C(C)C)s3)c2)cn1 [Example 265, N-[(1R)-1-(5-methylpyrazin-2-yl)ethyl]-3-[5-(propan-2-yl)-1,3-thiazol-2-yl]-5-[(3R)-tetrahydrofuran-3-ylmethoxy]benzamide]	696		104		
Cc1cnc(-c2cc(OCC3(F)CCCN(C)C3)cc(C(=O)N[C@H](C)c3cnc(C(F)(F)F)nc3)c2)s1 (single isomer, unassigned) [Example 357]	310	5			
CCc1cnc(-c2cc(OC[C@H]3CCCO3)cc(C(=O)N[C@H](C)c3ccc(C)nn3)c2)s1 [Example 267, 3-(5-ethyl-1,3-thiazol-2-yl)-N-[(1R)-1-(6-methylpyridazin-3-yl)ethyl]-5-[(2R)-tetrahydrofuran-2-ylmethoxy]benzamide]	173			14	
Cc1cnc(-c2cc(OC3C4COCC3CN(C)C4)cc(C(=O)N[C@H](C)c3cnc(C(F)(F)F)nc3)c2)s1 (single isomer, unassigned) [Example 342]	1890		40		
Cc1cnc(-c2cc(OC(C)C(C)O)cc(C(=O)N[C@H](C)c3cnc(C(F)(F)F)nc3)c2)s1 (stereo in doubt) [Example 340, 3-[(3-hydroxybutan-2-yl)oxy]-5-(5-methyl-1,3-thiazol-2-yl)-N-{(1R)-1-[2-(trifluoromethyl)pyrimidin-5-yl]ethyl}benzamide]	103				3

The next lines start with results.

IC50 (human P2X2/3 receptor) [nM]	IC50 (human P2X3 receptor; [1]) [nM]	IC50 (human P2X3 receptor; [2]) [nM]	SMILES	IC50 (human P2X3 receptor; read-out: hP2X3 IC50) [nM]	IC50 (human P2X3 receptor; hP2X3 IC50 (nM)) [nM]
541	13		Cc1cnc(-c2cc(OC3CCC(=O)N(C)C3)cc(C(=O)N[C@H](C)c3cnc(C(F)(F)F)nc3)c2)s1 (stereo partly drawn) [Example 335, 3-[(1-methyl-6-oxopiperidin-3-yl)oxy]-5-(5-methyl-1,3-thiazol-2-yl)-N-{(1R)-1-[2-(trifluoromethyl)pyrimidin-5-yl]ethyl}benzamide]		
1940		21	Cc1cnc(-c2cc(O[C@@H]3CCCN(C)C3)cc(C(=O)N[C@H](C)c3cnc(C(F)(F)F)nc3)c2)s1 [Example 158, 3-{[(3R)-1-methylpiperidin-3-yl]oxy}-5-(5-methyl-1,3-thiazol-2-yl)-N-{(1R)-1-[2-(trifluoromethyl)pyrimidin-5-yl]ethyl}benzamide]		
2270		40	Cc1cnc(-c2cc(O[C@H]3CCCN(C)C3)cc(C(=O)N[C@H](C)c3cnc(C(F)(F)F)nc3)c2)s1 [Example 155, 3-{[(3S)-1-methylpiperidin-3-yl]oxy}-5-(5-methyl-1,3-thiazol-2-yl)-N-{(1R)-1-[2-(trifluoromethyl)pyrimidin-5-yl]ethyl}benzamide]		
